From ChEMBL document CHEMBL1142025 (Bioorg Med Chem Lett, 2005)

Molecular target: Human immunodeficiency virus type 1 protease (Human immunodeficiency virus 1, UniProt Q72874)
Experiment: Binding affinity against human immunodeficiency virus (HIV) protease
Type: single protein, human immuno deficiency virus protease

Structure (SMILES)	Ki
CC(C)(C)OC(=O)NCCCC[C@H](NC(=O)OCC1c2ccccc2-c2ccccc21)C(=O)O	28 µM
Cc1ccc(S(=O)(=O)N(CC(C)C)[C@H](CCCCNC(=O)OCC2c3ccccc3-c3ccccc32)C(=O)O)cc1	0.33 µM
